The target of this assay is T1, sodium ion channel 1.7 (Homo sapiens, UniProt Q15858).
T1 construct: endogenous in cells; host or cells: sensory neurons induced from human fibroblast-derived iPSCs
Put plainly: MEA spontaneous discharge after PF-05089771. It is filed as cell-based.

Protein sequences, listed by entry. Tags and fused reporters are not part of them.
UniProt Q15858, whole entry: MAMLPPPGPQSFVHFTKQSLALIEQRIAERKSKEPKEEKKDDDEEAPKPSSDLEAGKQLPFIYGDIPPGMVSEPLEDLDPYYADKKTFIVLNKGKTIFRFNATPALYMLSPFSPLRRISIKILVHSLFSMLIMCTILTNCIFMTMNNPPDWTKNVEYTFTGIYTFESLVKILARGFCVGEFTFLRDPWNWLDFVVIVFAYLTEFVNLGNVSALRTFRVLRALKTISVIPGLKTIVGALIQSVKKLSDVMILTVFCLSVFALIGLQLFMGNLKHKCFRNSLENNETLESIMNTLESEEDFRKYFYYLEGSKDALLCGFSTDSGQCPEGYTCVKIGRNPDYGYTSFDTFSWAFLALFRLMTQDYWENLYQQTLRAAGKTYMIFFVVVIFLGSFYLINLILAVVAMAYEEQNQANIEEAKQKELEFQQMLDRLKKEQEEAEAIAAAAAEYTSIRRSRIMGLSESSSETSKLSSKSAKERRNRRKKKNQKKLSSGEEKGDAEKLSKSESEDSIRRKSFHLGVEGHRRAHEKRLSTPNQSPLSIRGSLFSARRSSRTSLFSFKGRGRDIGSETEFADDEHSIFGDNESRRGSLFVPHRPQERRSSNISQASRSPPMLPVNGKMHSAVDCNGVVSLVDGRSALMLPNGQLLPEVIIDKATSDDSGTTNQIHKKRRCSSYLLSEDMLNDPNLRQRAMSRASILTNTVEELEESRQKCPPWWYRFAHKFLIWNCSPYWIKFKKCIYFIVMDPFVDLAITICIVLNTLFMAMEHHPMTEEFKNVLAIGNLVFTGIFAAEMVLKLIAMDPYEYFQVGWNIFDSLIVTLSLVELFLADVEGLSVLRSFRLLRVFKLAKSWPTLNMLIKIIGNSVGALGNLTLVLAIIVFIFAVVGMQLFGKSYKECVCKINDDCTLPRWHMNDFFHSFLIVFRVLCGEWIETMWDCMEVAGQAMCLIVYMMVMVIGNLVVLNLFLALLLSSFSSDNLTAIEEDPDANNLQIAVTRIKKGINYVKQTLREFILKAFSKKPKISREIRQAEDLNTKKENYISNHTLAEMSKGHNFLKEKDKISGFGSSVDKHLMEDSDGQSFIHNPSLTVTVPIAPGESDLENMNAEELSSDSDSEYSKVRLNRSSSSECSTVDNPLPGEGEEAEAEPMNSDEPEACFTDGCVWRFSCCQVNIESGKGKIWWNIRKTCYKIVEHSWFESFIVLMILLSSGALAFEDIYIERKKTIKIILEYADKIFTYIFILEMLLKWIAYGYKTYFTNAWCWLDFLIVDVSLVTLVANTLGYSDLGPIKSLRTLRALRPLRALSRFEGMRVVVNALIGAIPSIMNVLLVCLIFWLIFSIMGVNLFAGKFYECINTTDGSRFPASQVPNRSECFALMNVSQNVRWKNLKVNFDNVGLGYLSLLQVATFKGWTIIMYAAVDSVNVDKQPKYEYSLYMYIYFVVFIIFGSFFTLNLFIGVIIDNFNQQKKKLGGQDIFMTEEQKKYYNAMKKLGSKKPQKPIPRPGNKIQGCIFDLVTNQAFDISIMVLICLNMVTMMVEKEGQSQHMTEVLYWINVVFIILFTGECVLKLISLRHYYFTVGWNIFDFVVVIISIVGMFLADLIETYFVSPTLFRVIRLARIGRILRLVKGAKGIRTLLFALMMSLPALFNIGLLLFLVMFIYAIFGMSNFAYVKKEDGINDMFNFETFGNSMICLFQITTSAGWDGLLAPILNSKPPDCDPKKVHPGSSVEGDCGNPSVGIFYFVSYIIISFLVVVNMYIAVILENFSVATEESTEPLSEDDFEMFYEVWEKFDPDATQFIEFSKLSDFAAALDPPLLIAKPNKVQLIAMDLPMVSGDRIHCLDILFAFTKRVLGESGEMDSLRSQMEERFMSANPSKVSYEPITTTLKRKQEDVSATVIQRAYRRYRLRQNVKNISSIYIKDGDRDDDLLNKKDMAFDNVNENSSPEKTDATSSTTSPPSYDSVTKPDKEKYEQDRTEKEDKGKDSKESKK

As for CHIR98014, the “electrophysiological strength of sodium ion channels of induced cells” value is “significantly improved”.

Values taken from patent US20230235282A1, “SERUM-FREE INDUCTION METHOD FOR SENSORY NEURON CELL” (IREGENE THERAPEUTICS LTD, priority 2020, published 2023).
